These results are taken from ChEMBL document CHEMBL1124743, “Development of a novel series of (2-quinolinylmethoxy)phenyl-containing compounds as high-affinity leukotriene receptor antagonists. 1. Initial structure-activity relationships” (J Med Chem, 1990).

In this experiment the test system is Cysteinyl leukotriene receptor (Cavia porcellus). Nature of the experiment: inhibition of the spasmogenic activity of LTD4 in guinea pig parenchymal strips at 10 uM.

In the case of `c1ccc2nc(COCc3ccc(OCCCc4nnn[nH]4)cc3)ccc2c1`, the inhibition amounted to 50%. Turning to `c1ccc(OCc2ccc3ccccc3n2)c(OCCCc2nnn[nH]2)c1`, the inhibition worked out at 10%.
